Structures are written as SMILES. pIC50: −log10 of the molar value.

Amino acid sequences for entries named in this document (tags omitted).
UniProt P50750, whole entry: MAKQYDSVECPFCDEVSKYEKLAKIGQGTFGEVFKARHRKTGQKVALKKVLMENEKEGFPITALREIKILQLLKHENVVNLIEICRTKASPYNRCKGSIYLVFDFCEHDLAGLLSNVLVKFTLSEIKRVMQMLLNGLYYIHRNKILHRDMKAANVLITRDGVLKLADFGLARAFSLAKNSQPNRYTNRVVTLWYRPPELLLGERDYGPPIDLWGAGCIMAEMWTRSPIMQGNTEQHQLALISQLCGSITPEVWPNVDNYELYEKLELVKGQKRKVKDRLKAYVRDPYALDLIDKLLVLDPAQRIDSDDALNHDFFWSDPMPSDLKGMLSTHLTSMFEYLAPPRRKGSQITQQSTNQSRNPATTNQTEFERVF
UniProt O60563, whole entry partner: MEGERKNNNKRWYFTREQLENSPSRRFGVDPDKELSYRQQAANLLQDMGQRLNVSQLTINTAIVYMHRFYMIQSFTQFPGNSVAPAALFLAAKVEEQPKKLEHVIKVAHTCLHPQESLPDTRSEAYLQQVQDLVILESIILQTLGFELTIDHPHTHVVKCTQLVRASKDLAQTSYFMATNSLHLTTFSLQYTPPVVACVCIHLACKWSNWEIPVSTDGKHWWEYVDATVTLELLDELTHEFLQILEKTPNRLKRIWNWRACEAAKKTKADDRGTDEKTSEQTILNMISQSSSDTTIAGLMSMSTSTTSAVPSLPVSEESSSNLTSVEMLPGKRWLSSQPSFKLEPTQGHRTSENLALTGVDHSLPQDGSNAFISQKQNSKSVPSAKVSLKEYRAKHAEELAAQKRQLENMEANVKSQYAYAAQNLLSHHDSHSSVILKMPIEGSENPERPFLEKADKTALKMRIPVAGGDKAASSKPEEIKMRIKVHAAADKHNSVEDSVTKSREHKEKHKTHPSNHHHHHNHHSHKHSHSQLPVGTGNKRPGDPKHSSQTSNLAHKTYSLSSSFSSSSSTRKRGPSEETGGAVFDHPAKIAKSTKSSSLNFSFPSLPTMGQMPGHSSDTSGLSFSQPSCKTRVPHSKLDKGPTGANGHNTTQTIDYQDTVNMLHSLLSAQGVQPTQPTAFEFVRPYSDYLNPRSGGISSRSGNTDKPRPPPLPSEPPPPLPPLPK

The target of this assay is Cdk9/cyclinT1 (Homo sapiens (Human), UniProt P50750). Description: Cdk9/CyclinT1 IMAP Protocol (fluorescence polarization kinase assay). The assay is classed as biochemical. The note with it: read-out: CDK9 CYCLINT1 (IC50); Table 2; generated using one of the two Cdk9/cyclinT1 assays (IMAP or Alpha Screen), not specified which; unit inferred.

Turning to `CC1(CN[C@H]2CC[C@H](Nc3cc(-c4ccc(F)c(NCC5(C#N)CCOCC5)n4)c(Cl)cn3)CC2)OCCO1`, the pIC50 was 9.57. Consider `CC1(CNc2nc(-c3cc(N[C@H]4CC[C@H](NCC5(C)OCCO5)CC4)ncc3Cl)ccc2F)CCOCC1`, for which the negative logarithm of the IC50 (pIC50) is 9.00.

The values above are taken from patent publication US8778951B2, “Heteroaryl compounds and their uses” (Novartis AG, priority 2009, dated 2014).
